# Permeability data for macrocyclic peptides

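Lipid, pH, incubation time, direction and concentration are not recorded in the data file. The list need not hold all peptides of the study. Peptides that the database sets to -10, its floor, are left out.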

PAMPA measures passive passage through an artificial lipid membrane. MDCK: transport across canine kidney epithelial cells. P is given in units of 10^-6 cm/s (from log10 values with two decimals); larger means faster passage.

{"smiles": "CC(=O)N1CCC[C@H]1C(=O)N(C)[C@H](CC(C)C)C(=O)N[C@@H]1C(=O)N(C)[C@H](CC(C)C)C(=O)N[C@H](CC(C)C)C(=O)N[C@H](CC(C)C)C(=O)N[C@H](C)C(=O)N[C@H](CC(C)C)C(=O)N2CCC[C@@H]2C(=O)O[C@@H]1C", "PAMPA (10^-6 cm/s)": "0.15"}
{"smiles": "CC(=O)N1CCC[C@H]1C(=O)N[C@@H]1C(=O)N[C@H](CC(C)C)C(=O)N[C@H](CC(C)C)C(=O)N[C@@H](CC(C)C)C(=O)N[C@@H](CC(C)C)C(=O)N[C@@H](C)C(=O)N[C@@H](CC(C)C)C(=O)N2CCC[C@@H]2C(=O)O[C@@H]1C", "PAMPA (10^-6 cm/s)": "0.21"}
{"smiles": "CC(=O)N1CCC[C@@H]1C(=O)N(C)[C@@H](CC(C)C)C(=O)N[C@@H]1C(=O)N[C@H](CC(C)C)C(=O)N(C)[C@H](CC(C)C)C(=O)N[C@H](CC(C)C)C(=O)N[C@H](C)C(=O)N[C@H](CC(C)C)C(=O)N2CCC[C@H]2C(=O)O[C@@H]1C", "PAMPA (10^-6 cm/s)": "0.76"}
{"smiles": "CC(=O)N1CCC[C@H]1C(=O)N(C)[C@H](CC(C)C)C(=O)N[C@@H]1C(=O)N[C@@H](CC(C)C)C(=O)N[C@H](CC(C)C)C(=O)N(C)[C@H](CC(C)C)C(=O)N(C)[C@H](C)C(=O)N[C@@H](CC(C)C)C(=O)N2CCC[C@@H]2C(=O)O[C@@H]1C", "PAMPA (10^-6 cm/s)": "0.25"}
{"smiles": "CC(=O)N1CCC[C@@H]1C(=O)N(C)[C@H](CC(C)C)C(=O)N[C@@H]1C(=O)N[C@H](CC(C)C)C(=O)N[C@H](CC(C)C)C(=O)N[C@@H](CC(C)C)C(=O)N[C@@H](C)C(=O)N[C@@H](CC(C)C)C(=O)N2CCC[C@@H]2C(=O)O[C@@H]1C", "PAMPA (10^-6 cm/s)": "0.015", "MDCK (10^-6 cm/s)": "0.4"}
{"smiles": "CC(=O)N1CCC[C@H]1C(=O)N(C)[C@H](CC(C)C)C(=O)N[C@@H]1C(=O)N[C@@H](CC(C)C)C(=O)N[C@H](CC(C)C)C(=O)N[C@H](CC(C)C)C(=O)N[C@@H](C)C(=O)N[C@H](CC(C)C)C(=O)N2CCC[C@@H]2C(=O)O[C@@H]1C", "PAMPA (10^-6 cm/s)": "0.14"}
{"smiles": "CC(=O)N1CCC[C@@H]1C(=O)N(C)[C@H](CC(C)C)C(=O)N[C@@H]1C(=O)N[C@@H](CC(C)C)C(=O)N(C)[C@H](CC(C)C)C(=O)N(C)[C@H](CC(C)C)C(=O)N(C)[C@H](C)C(=O)N[C@H](CC(C)C)C(=O)N2CCC[C@@H]2C(=O)O[C@@H]1C", "PAMPA (10^-6 cm/s)": "1.1"}
{"smiles": "CC(=O)N1CCC[C@H]1C(=O)N(C)[C@@H](CC(C)C)C(=O)N[C@@H]1C(=O)N(C)[C@H](CC(C)C)C(=O)N[C@H](CC(C)C)C(=O)N[C@@H](CC(C)C)C(=O)N(C)[C@@H](C)C(=O)N[C@@H](CC(C)C)C(=O)N2CCC[C@H]2C(=O)O[C@@H]1C", "PAMPA (10^-6 cm/s)": "0.35"}
{"smiles": "CC(=O)N1CCC[C@@H]1C(=O)N(C)[C@H](CC(C)C)C(=O)N[C@@H]1C(=O)N(C)[C@H](CC(C)C)C(=O)N(C)[C@@H](CC(C)C)C(=O)N[C@@H](CC(C)C)C(=O)N(C)[C@H](C)C(=O)N[C@H](CC(C)C)C(=O)N2CCC[C@@H]2C(=O)O[C@@H]1C", "PAMPA (10^-6 cm/s)": "1.2"}
{"smiles": "CC(=O)N1CCC[C@@H]1C(=O)N(C)[C@@H](CC(C)C)C(=O)N[C@@H]1C(=O)N[C@@H](CC(C)C)C(=O)N[C@H](CC(C)C)C(=O)N[C@H](CC(C)C)C(=O)N[C@H](C)C(=O)N[C@@H](CC(C)C)C(=O)N2CCC[C@@H]2C(=O)O[C@@H]1C", "PAMPA (10^-6 cm/s)": "0.44"}
{"smiles": "CC(=O)N1CCC[C@@H]1C(=O)N(C)[C@H](CC(C)C)C(=O)N[C@@H]1C(=O)N[C@H](CC(C)C)C(=O)N(C)[C@H](CC(C)C)C(=O)N(C)[C@@H](CC(C)C)C(=O)N(C)[C@H](C)C(=O)N[C@@H](CC(C)C)C(=O)N2CCC[C@H]2C(=O)O[C@@H]1C", "PAMPA (10^-6 cm/s)": "3.3"}
{"smiles": "CC(=O)N1CCC[C@H]1C(=O)N(C)[C@H](CC(C)C)C(=O)N[C@@H]1C(=O)N[C@@H](CC(C)C)C(=O)N[C@H](CC(C)C)C(=O)N(C)[C@H](CC(C)C)C(=O)N[C@@H](C)C(=O)N[C@@H](CC(C)C)C(=O)N2CCC[C@@H]2C(=O)O[C@@H]1C", "PAMPA (10^-6 cm/s)": "0.58"}
{"smiles": "CC(=O)N1CCC[C@H]1C(=O)N(C)[C@H](CC(C)C)C(=O)N[C@@H]1C(=O)N[C@@H](CC(C)C)C(=O)N[C@@H](CC(C)C)C(=O)N(C)[C@@H](CC(C)C)C(=O)N(C)[C@@H](C)C(=O)N[C@@H](CC(C)C)C(=O)N2CCC[C@@H]2C(=O)O[C@@H]1C", "PAMPA (10^-6 cm/s)": "2"}
{"smiles": "CC(=O)N1CCC[C@H]1C(=O)N(C)[C@@H](CC(C)C)C(=O)N[C@@H]1C(=O)N[C@H](CC(C)C)C(=O)N[C@@H](CC(C)C)C(=O)N[C@H](CC(C)C)C(=O)N(C)[C@H](C)C(=O)N[C@H](CC(C)C)C(=O)N2CCC[C@@H]2C(=O)O[C@@H]1C", "PAMPA (10^-6 cm/s)": "0.069"}
{"smiles": "CC(=O)N1CCC[C@H]1C(=O)N(C)[C@@H](CC(C)C)C(=O)N[C@@H]1C(=O)N(C)[C@@H](CC(C)C)C(=O)N(C)[C@H](CC(C)C)C(=O)N[C@H](CC(C)C)C(=O)N(C)[C@@H](C)C(=O)N[C@H](CC(C)C)C(=O)N2CCC[C@H]2C(=O)O[C@@H]1C", "PAMPA (10^-6 cm/s)": "0.89"}
{"smiles": "CC(=O)N1CCC[C@H]1C(=O)N[C@@H]1C(=O)N[C@H](CC(C)C)C(=O)N(C)[C@@H](CC(C)C)C(=O)N(C)[C@@H](CC(C)C)C(=O)N[C@@H](CC(C)C)C(=O)N(C)[C@@H](C)C(=O)N[C@@H](CC(C)C)C(=O)N2CCC[C@@H]2C(=O)O[C@@H]1C", "PAMPA (10^-6 cm/s)": "11"}

Extract of 2 entries:

{"smiles": "CC(=O)N1CCC[C@H]1C(=O)N[C@@H]1C(=O)N[C@H](CC(C)C)C(=O)N[C@H](CC(C)C)C(=O)N[C@@H](CC(C)C)C(=O)N[C@@H](CC(C)C)C(=O)N[C@@H](C)C(=O)N[C@@H](CC(C)C)C(=O)N2CCC[C@@H]2C(=O)O[C@@H]1C", "PAMPA (10^-6 cm/s)": "0.21"}
{"smiles": "CC(=O)N1CCC[C@@H]1C(=O)N(C)[C@H](CC(C)C)C(=O)N[C@@H]1C(=O)N[C@H](CC(C)C)C(=O)N(C)[C@H](CC(C)C)C(=O)N(C)[C@@H](CC(C)C)C(=O)N(C)[C@H](C)C(=O)N[C@@H](CC(C)C)C(=O)N2CCC[C@H]2C(=O)O[C@@H]1C", "PAMPA (10^-6 cm/s)": "3.3"}

Collected by the curators of CycPeptMPDB (Li et al. 2023) from Kelly et al. 2021, doi:10.1021/jacs.0c06115.